Earlier results, collected in publication PMC8401933 (Molecules, 2021).

System: CK2 holoenzyme
Conditions: quantity not named; cited from earlier work

SMILES: O=C1c2ccc(O)c(O)c2C(=O)c2c(O)ccc(O)c21 [quinalizarin, 1,2,5,8-tetrahydroxyanthraquinone]
- inhibitor potency for CK2 holoenzyme: 58 nM
